Laboratory results from ChEMBL document CHEMBL1123502, “Synthesis of [[(naphthalenylmethoxy)- and [[(quinolinylmethoxy)phenyl]amino]oxoalkanoic acid esters. A novel series of leukotriene D4 antagonists and 5-lipoxygenase inhibitors” (J Med Chem, 1986).

assay: In vivo inhibition of LTD4-induced bronchospasm in guinea pig at dose of 50 mg/kg; details: Cavia porcellus

Row | SMILES | inhibition
1 | COC(=O)CCC(=O)Nc1cccc(OCc2ccc3ccccc3n2)c1C | 3%
2 | COC(=O)CCCC(=O)Nc1cccc(OCc2ccc3ccccc3n2)c1 | -6%
3 | COC(=O)CCC(=O)Nc1cccc(COc2ccc3ccccc3c2)c1 | 1%

Next, values leading:

Row | inhibition | SMILES
4 | 84% | CCOC(=O)CC(=O)Nc1cccc(OCc2ccc3ccccc3n2)c1
5 | 96% | COC(=O)CC(=O)Nc1cccc(OCc2ccc3ccccc3n2)c1
